In PMC5630639, “Structure-Activity Relationship Studies of β-Lactam-azide Analogues as Orally Active Antitumor Agents Targeting the Tubulin Colchicine Site” (Scientific Reports, 2017):

System: colchicine-binding site of β-tubulin
Experiment: EBI competition assay
Type: cell-based, human
Settings: 10 μM, 2 h; EBI 100 μM

COc1cc2c(c(OC)c1OC)-c1ccc(OC)c(=O)cc1[C@@H](NC(C)=O)CC2 [colchicine]
formation of the EBI: β-tubulin adduct: disappearance of the adduct band
